In this experiment the target is T1, Human Matriptase-1 (Homo sapiens, UniProt Q9Y5Y6).
T1 sequence (Q9Y5Y6 1-855): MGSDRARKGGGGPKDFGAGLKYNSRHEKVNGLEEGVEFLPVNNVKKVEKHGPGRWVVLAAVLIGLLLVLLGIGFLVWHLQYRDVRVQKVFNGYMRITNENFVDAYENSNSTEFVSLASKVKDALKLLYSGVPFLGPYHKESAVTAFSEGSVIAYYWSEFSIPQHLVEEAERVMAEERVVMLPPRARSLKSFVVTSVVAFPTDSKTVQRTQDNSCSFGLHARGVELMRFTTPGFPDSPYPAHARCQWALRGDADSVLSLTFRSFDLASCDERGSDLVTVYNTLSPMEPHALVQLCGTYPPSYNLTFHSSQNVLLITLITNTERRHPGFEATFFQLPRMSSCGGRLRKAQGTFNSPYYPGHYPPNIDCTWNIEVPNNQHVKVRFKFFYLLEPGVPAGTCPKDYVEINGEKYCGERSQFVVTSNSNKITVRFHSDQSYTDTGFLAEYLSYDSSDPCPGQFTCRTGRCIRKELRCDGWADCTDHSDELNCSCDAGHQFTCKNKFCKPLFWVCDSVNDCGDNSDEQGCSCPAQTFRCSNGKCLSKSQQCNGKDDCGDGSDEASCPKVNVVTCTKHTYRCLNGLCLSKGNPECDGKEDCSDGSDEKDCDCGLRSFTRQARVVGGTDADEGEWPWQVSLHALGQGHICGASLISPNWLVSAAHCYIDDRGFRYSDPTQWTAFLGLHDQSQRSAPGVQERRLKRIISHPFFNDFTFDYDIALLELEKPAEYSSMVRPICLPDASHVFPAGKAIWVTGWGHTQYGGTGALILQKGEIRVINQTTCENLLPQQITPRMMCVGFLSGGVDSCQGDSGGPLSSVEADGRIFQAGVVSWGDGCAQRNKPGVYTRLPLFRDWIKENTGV
Description: biochemical.

For the molecule `CCOC(=O)N1CCN(C(=O)[C@H](Cc2cccc(C(=N)N)c2)NS(=O)(=O)c2c(C(C)C)cc(C(C)C)cc2C(C)C)CC1` [WX-UK1, N-α-(2,4,6-triisopropylphenylsulfonyl)-3-amidino-phenylalanine-4-ethoxycarbonylpiperazide], the Ki stood at 200 ± 10 nM.

A word on the Ki: it is a dissociation constant, usually derived from enzyme kinetics or from competition with a known ligand. Low values mean a stronger hold on the target, high ones a looser hold on the target.

For the origin of these results see patent US11045453B1 (priority 2020, dated 2021).
